These results are taken from PMC6346213, “Complex‐centric proteome profiling by SEC‐SWATH‐MS” (Molecular Systems Biology, 2019).

In general, stoichiometry N refers to the number of molecules, sites or subunits per partner or assembly.

Sequences and labels used below:
B2: COP9 signalosome subunit CSN3 (natural protein, human (endogenous in HEK293), UniProt Q9UNS2 1-423, looked up)
chain: MASALEQFVNSVRQLSAQGQMTQLCELINKSGELLAKNLSHLDTVLGALDVQEHSLGVLAVLFVKFSMPSVPDFETLFSQVQLFISTCNGEHIRYATDTFAGLCHQLTNALVERKQPLRGIGILKQAIDKMQMNTNQLTSIHADLCQLCLLAKCFKPALPYLDVDMMDICKENGAYDAKHFLCYYYYGGMIYTGLKNFERALYFYEQAITTPAMAVSHIMLESYKKYILVSLILLGKVQQLPKYTSQIVGRFIKPLSNAYHELAQVYSTNNPSELRNLVNKHSETFTRDNNMGLVKQCLSSLYKKNIQRLTKTFLTLSLQDMASRVQLSGPQEAEKYVLHMIEDGEIFASINQKDGMVSFHDNPEKYNNPAMLHNIDQEMLKCIELDERLKAMDQEITVNPQFVQKSMGSQEDDSGNKPSSYS
notes: COP9 signalosome subunit 3 (CSN3), human; source: endogenous, HEK293 lysate

Assay [1] addresses B2. The experiment in a line: SEC; co-fractionation of native HEK293 lysate (freeze-thaw, 0.5% NP-40); Yarra-SEC-4000, 50 mM HEPES pH 7.5, 150 mM NaCl, 4°C; 81 fractions quantified by SWATH-MS; co-elution of protein profiles scored with CCprofiler (5% FDR) and by manual inspection. The following applies: partners not purified.
Assay [2] deals with T1, COP9 signalosome subunit CSN8 (human (endogenous in HEK293), UniProt Q99627 1-209).
T1 construct: COP9 signalosome subunit 8 (CSN8), human; source: endogenous, HEK293 lysate
T1 sequence (looked up): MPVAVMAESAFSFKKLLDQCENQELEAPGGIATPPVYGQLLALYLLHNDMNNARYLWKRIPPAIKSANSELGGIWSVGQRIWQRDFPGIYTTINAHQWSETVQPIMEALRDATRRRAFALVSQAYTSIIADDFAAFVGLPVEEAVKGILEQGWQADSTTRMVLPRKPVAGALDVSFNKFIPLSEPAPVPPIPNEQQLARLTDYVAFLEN
The assay is described as above. The following applies: partners not purified.

B1: COP9 signalosome subunit CSN1 (natural protein, human (endogenous in HEK293), UniProt Q13098 1-491, looked up)
chain: MPLPVQVFNLQGAVEPMQIDVDPQEDPQNAPDVNYVVENPSLDLEQYAASYSGLMRIERLQFIADHCPTLRVEALKMALSFVQRTFNVDMYEEIHRKLSEATRSSLRELQNAPDAIPESGVEPPALDTAWVEATRKKALLKLEKLDTDLKNYKGNSIKESIRRGHDDLGDHYLDCGDLSNALKCYSRARDYCTSAKHVINMCLNVIKVSVYLQNWSHVLSYVSKAESTPEIAEQRGERDSQTQAILTKLKCAAGLAELAARKYKQAAKCLLLASFDHCDFPELLSPSNVAIYGGLCALATFDRQELQRNVISSSSFKLFLELEPQVRDIIFKFYESKYASCLKMLDEMKDNLLLDMYLAPHVRTLYTQIRNRALIQYFSPYVSADMHRMAAAFNTTVAALEDELTQLILEGLISARVDSHSKILYARDVDQRSTTFEKSLLMGKEFQRRAKAMMLRAAVLRNQIHVKSPPREGSQGELTPANSQSRMSTNM
notes: COP9 signalosome subunit 1 (CSN1), human; source: endogenous, HEK293 lysate
Turning to B1, the “stoichiometry N” value in assay [1] and in assay [2] was 1 in each case.
As to B2, the “stoichiometry N” value in assay [2] amounted to 1.
